Laboratory results reported in PubChem BioAssay AID624296 (National Center for Advancing Translational Sciences (NCATS), 2012).
The list shows a part of the results, in another mix than the full data. Inconclusive results are not listed. Calls of active or inactive are those of the source. Calls come from the whole dose curve; as a rule, active = well fitted activation curve with a large enough effect; inconclusive = small, poorly fitted or top-dose-only effect; inactive = no such curve, though single readings can be large or run the other way.

assay: A quantitative high throughput screen for small molecules that induce DNA re-replication in MCF 10a normal breast cells.; note: nearly all actives have a fitted effect of over 50% in size; for activity, positive = re-replication: % of control where 0% means no effect; settings: MCF 10A DNA re-replication, Hoechst nuclear intensity, 48 h; series mostly up to 46.1 µM; activity, positive = re-replication: at the top concentration
Potency is the fitted concentration of half-maximal effect.

| SMILES | activity, positive = re-replication | Potency |
| --- | --- | --- |
| CP(=S)(Nn1cnnc1)Oc1ccccc1 (stereo unspecified) | inactive: 5.78% |  |
| CP(=O)(Nc1ccccc1Br)Oc1ccccc1 (stereo unspecified) | inactive: -3.09% |  |
| COc1ccccc1OP(C)(=O)Nc1ccccc1 (stereo unspecified) | inactive: 3.32% |  |
| CN(C)CCS | inactive: 9.88% |  |
| O=[N+]([O-])c1cc([N+](=O)[O-])c(O)c([N+](=O)[O-])c1.c1ccc(Oc2ccncc2)cc1 | inactive: 0% |  |
| CCOC(=O)c1ccc(NP(C)(=O)Oc2ccc(OC)cc2)cc1 (stereo unspecified) | inactive: 7.09% |  |
| CCOP(C)(=S)SCC(=O)NC(C)C(=O)O (stereo unspecified) | inactive: -10.6% |  |
| CP(=O)(Nc1ccccn1)Oc1ccc(Cl)cc1 (stereo unspecified) | inactive: -4.82% |  |
| CP(=O)(Oc1ccccc1)OC(c1ccccc1)C(F)(F)F (stereo unspecified) | inactive: -3.17% |  |
| Cc1cccc(C)c1OP(C)(=O)Nc1ccc(SC(F)(F)F)cc1 (stereo unspecified) | inactive: -0.717% |  |
| Cc1cc(C)cc(OP(C)(=O)Nc2ccc(SC(F)(F)F)cc2)c1 (stereo unspecified) | inactive: 0.772% |  |
| CCc1ccc(OP(C)(=O)N2CCN(c3ccc([N+](=O)[O-])cc3)CC2)cc1 (stereo unspecified) | inactive: 0.858% |  |
| O=[N+]([O-])[O-].[NH4+] | inactive: -2.45% |  |
| CCN(CC)CCCOC(=O)C(O)(c1ccccc1)c1ccccc1 | inactive: 4.24% |  |
| Cc1ccc(NP(C)(=O)Oc2ccccc2)c(C)c1 (stereo unspecified) | inactive: -2.49% |  |
| COc1ccccc1OP(C)(=O)Nc1ccc(C)cc1 (stereo unspecified) | inactive: 4.12% |  |
| CCOC(=O)c1ccc(NP(C)(=O)Oc2ccccc2)cc1 (stereo unspecified) | inactive: -0.271% |  |
| Cc1cc(C)cc(OP(C)(N)=O)c1 (stereo unspecified) | inactive: 3.21% |  |
| COc1ccc(OP(C)(=O)Nc2cccc(F)c2)cc1 (stereo unspecified) | inactive: -3.09% |  |
| COc1ccccc1OP(C)(=O)Nc1cc(Cl)ccc1C (stereo unspecified) | inactive: -0.892% |  |
| O=[N+]([O-])c1ccc2c(c1)C=Nc1ccccc1O2 |  | active: 23.1 µM |
| Cc1cccc(C)c1OP(C)(N)=O (stereo unspecified) | inactive: 2.59% |  |
| CC(C)(C)c1ccc(OP(C)(=O)Nc2ccc(SC(F)(F)F)cc2)cc1 (stereo unspecified) |  | active: 9.2 µM |
| O=[N+]([O-])OCC(CO[N+](=O)[O-])(CO[N+](=O)[O-])CO[N+](=O)[O-] | inactive: -1.13% |  |
| O=[N+]([O-])c1cccc([N+](=O)[O-])c1 | inactive: 1.73% |  |
| Cc1ccc(C)c(NP(C)(=O)Oc2ccccc2)c1 (stereo unspecified) | inactive: 16.2% |  |

| SMILES | activity, positive = re-replication | Potency |
| --- | --- | --- |
| Cc1cc(C)cc(OP(C)(=O)Nc2ccccn2)c1 (stereo unspecified) | inactive: 4.31% |  |
| CP(=O)(Nc1cccc(Br)c1)Oc1ccccc1 (stereo unspecified) | inactive: -0.608% |  |
| COc1ccccc1OP(C)(=O)Nc1cccc(Br)c1 (stereo unspecified) | inactive: 3.38% |  |
| Cc1cc(C)cc(OP(C)(=O)Nc2ccc(C)cc2C)c1 (stereo unspecified) | inactive: -6.67% |  |
| Cc1nc2ccc3ccccc3c2s1.O=[N+]([O-])c1cc([N+](=O)[O-])c(O)c([N+](=O)[O-])c1 | inactive: 10% |  |
| O=[N+]([O-])c1cc([N+](=O)[O-])c(-n2nnc3ccccc32)c([N+](=O)[O-])c1 | inactive: -2.3% |  |
| CN1CCCCC1COC(=O)C1(O)c2ccccc2CCc2ccccc21 (stereo unspecified) | inactive: 5.71% |  |
| COc1ccccc1OP(C)(=O)Nc1c(C)cccc1C (stereo unspecified) | inactive: -1.04% |  |
| CCCOc1ccc(NP(C)(=O)Oc2ccc(Cl)cc2)cc1 (stereo unspecified) | inactive: 3.78% |  |
| CP(=O)(Nc1ccc(SC(F)(F)F)cc1)Oc1ccccc1 (stereo unspecified) | inactive: 7.79% |  |
| CC1=C2N=C(C=C3N=C(C(C)=C4[N-][C@@](C)([C@@H]5N=C1[C@](C)(CCC(=O)NC[C@@H](C)OP(=O)([O-])O[C@H]1[C@@H](O)[C@@H](n6cnc7cc(C)c(C)cc76)O[C@@H]1CO)[C@H]5CC(N)=O)[C@@](C)(CC(N)=O)[C@@H]4CCC(N)=O)[C@@](C)(CC(N)=O)[C@@H]3CCC(N)=O)C(C)(C)[C@@H]2CCC(N)=O.[C-]#N.[Co+3] | inactive: 2.29% |  |
| O=[N+]([O-])c1cc([N+](=O)[O-])c(Nc2nnnn2CCO)c([N+](=O)[O-])c1 | inactive: -0.372% |  |
| Cc1cc(-c2cccc3ccccc23)c(C)cn1.O=[N+]([O-])c1cc([N+](=O)[O-])c(O)c([N+](=O)[O-])c1 | inactive: -4.57% |  |
| Cc1c(C(c2ccc3c(c2)OCO3)c2c(C)n(C)n(-c3ccccc3)c2=O)c(=O)n(-c2ccccc2)n1C.O=[N+]([O-])c1cc([N+](=O)[O-])c(O)c([N+](=O)[O-])c1 | inactive: 0.681% |  |
| COc1ccc(OP(C)(=O)Nc2cccc(Br)c2)cc1 (stereo unspecified) | inactive: 17% |  |
| CN(C)CCOC(=O)C(O)(c1ccccc1)C1CCCCC1 (stereo unspecified) | inactive: -1.82% |  |
| CP(=O)(Nc1ccc2c(c1)OCCO2)Oc1ccccc1 (stereo unspecified) | inactive: -6.17% |  |
| Cc1ccccc1NP(C)(=O)Nc1ccccc1C | inactive: -0.0638% |  |
| CP(=O)(Nc1ccc(SC(F)(F)F)cc1)Oc1ccc(F)cc1 (stereo unspecified) | inactive: 4.51% |  |
| CCOP(C)(=S)SCC(=O)NC(C)(CC)C(=O)O (stereo unspecified) | inactive: 5.02% |  |
| O=C(OCCN1CCN(CCOCc2ccccc2)CC1)C(O)(c1ccccc1)c1ccccc1 | inactive: 10.8% |  |
| CC(C)c1ccc(OP(C)(=O)Nc2ccc(SC(F)(F)F)cc2)cc1 (stereo unspecified) |  | active: 20.6 µM |
| Cc1c([N+](=O)[O-])cc([N+](=O)[O-])c(Br)c1[N+](=O)[O-] | inactive: 3.98% |  |
| CCN(CC)CCCOC(=O)C(O)(c1ccccc1)C1CCCCC1 (stereo unspecified) | inactive: 0.413% |  |
| CP(=O)(Nc1ccccc1)Oc1ccc(F)cc1 (stereo unspecified) |  | active: 14.6 µM |
| CCOC(=O)c1ccc(NP(C)(=O)Oc2ccc(F)cc2)cc1 (stereo unspecified) | inactive: 7.08% |  |

| SMILES | activity, positive = re-replication | Potency |
| --- | --- | --- |
| COc1ccc(OP(C)(=O)Nc2ccc(SC(F)(F)F)cc2)cc1 (stereo unspecified) | inactive: -42.7% |  |
| Cc1cc(C)cc(OP(C)(=O)Nc2cccc(C(F)(F)F)c2)c1 (stereo unspecified) | inactive: -12% |  |
| COc1ccccc1OP(C)(=O)Nc1ccc(C)c(C)c1 (stereo unspecified) | inactive: -2.32% |  |
| COc1ccc(OP(C)(=O)Nc2ccccc2Br)cc1 (stereo unspecified) | inactive: -2.78% |  |
| Cc1c(NP(C)(=O)Oc2ccc(C(C)C)cc2)c(=O)n(-c2ccccc2)n1C (stereo unspecified) | inactive: -1.57% |  |
| COc1ccccc1OP(C)(=O)Nc1ccc(C)cc1C (stereo unspecified) | inactive: -0.0401% |  |
| CP(=O)(Nc1ccccn1)Oc1ccccc1 (stereo unspecified) | inactive: 5.65% |  |
| CCc1ccc(OP(C)(=O)O)cc1 | inactive: 10.7% |  |
| COc1ccccc1OP(C)(=O)Nc1ccc(Br)cc1 (stereo unspecified) | inactive: -16% |  |
| COc1ccc(OP(C)(=O)Nc2ccccn2)cc1 (stereo unspecified) | inactive: 2.44% |  |
| CN(C)CCOC(=O)C(O)(c1ccccc1)C1CCCC1 (stereo unspecified) | inactive: -3.67% |  |
| COc1ccccc1OP(C)(=O)Nc1ccccc1Br (stereo unspecified) | inactive: 0.239% |  |
| CC(C)(C)c1ccc(OP(C)(=O)O)cc1 | inactive: -1.53% |  |
| COc1ccc(OP(C)(=O)Nc2ccc(Br)cc2)cc1 (stereo unspecified) | inactive: 19.7% |  |
| CCN(CC)CC(O)COC(=O)C(O)(c1ccccc1)C1CCCCC1 (stereo unspecified) | inactive: 4.26% |  |
| N#[O+].[C-]#N.[C-]#N.[C-]#N.[C-]#N.[C-]#N.[Fe+2].[Na+].[Na+] | inactive: 1.26% |  |
| OCCSCCO | inactive: -12.3% |  |
| COc1ccccc1OP(C)(=O)Nc1c(C)n(C)n(-c2ccccc2)c1=O (stereo unspecified) | inactive: 1.82% |  |
| CCc1ccc(OP(C)(=O)Nc2cccnc2)cc1 (stereo unspecified) | inactive: -2.13% |  |
| CP(=O)(Oc1ccccc1)N1CCOC1=O (stereo unspecified) | inactive: 0.802% |  |
| CC(C)OP(=O)(F)OC(C)C | inactive: -0.988% |  |
| C/C1=C2N=C(/C=C3N=C(/C(C)=C4\[N-][C@@](C)([C@H]5N=C1[C@@](C)(CCC(=O)NC[C@H](C)OP(=O)([O-])O[C@@H]1[C@H](O)[C@H](n6cnc7cc(C)c(C)cc76)O[C@@H]1CO)[C@@H]5CC(N)=O)[C@](C)(CC(N)=O)[C@H]4CCC(N)=O)[C@@](C)(CC(N)=O)[C@@H]\3CCC(N)=O)C(C)(C)[C@@H]/2CCC(N)=O.[C-]#N.[Co+3] | inactive: -1.96% [at 20.6 µM] |  |
| Nc1ccc2c(ccc3cccnc32)n1.O=[N+]([O-])c1cc([N+](=O)[O-])c(O)c([N+](=O)[O-])c1 | inactive: 18.6% |  |
| CCOC(=O)c1ccc(NP(C)(=O)Oc2ccc(Cl)cc2)cc1 (stereo unspecified) | inactive: 2.48% |  |
